Drawing on ChEMBL document CHEMBL5512680, “Design, Synthesis, and Biological Evaluation of New 2,6,7-Substituted Purine Derivatives as Toll-like Receptor 7 Agonists for Intranasal Vaccine Adjuvants” (J Med Chem, 2024), this text covers Emax for one molecule.

The test deals with T1, Toll-like receptor 7 (Mus musculus) (UniProt P58681).
T1 sequence (whole entry): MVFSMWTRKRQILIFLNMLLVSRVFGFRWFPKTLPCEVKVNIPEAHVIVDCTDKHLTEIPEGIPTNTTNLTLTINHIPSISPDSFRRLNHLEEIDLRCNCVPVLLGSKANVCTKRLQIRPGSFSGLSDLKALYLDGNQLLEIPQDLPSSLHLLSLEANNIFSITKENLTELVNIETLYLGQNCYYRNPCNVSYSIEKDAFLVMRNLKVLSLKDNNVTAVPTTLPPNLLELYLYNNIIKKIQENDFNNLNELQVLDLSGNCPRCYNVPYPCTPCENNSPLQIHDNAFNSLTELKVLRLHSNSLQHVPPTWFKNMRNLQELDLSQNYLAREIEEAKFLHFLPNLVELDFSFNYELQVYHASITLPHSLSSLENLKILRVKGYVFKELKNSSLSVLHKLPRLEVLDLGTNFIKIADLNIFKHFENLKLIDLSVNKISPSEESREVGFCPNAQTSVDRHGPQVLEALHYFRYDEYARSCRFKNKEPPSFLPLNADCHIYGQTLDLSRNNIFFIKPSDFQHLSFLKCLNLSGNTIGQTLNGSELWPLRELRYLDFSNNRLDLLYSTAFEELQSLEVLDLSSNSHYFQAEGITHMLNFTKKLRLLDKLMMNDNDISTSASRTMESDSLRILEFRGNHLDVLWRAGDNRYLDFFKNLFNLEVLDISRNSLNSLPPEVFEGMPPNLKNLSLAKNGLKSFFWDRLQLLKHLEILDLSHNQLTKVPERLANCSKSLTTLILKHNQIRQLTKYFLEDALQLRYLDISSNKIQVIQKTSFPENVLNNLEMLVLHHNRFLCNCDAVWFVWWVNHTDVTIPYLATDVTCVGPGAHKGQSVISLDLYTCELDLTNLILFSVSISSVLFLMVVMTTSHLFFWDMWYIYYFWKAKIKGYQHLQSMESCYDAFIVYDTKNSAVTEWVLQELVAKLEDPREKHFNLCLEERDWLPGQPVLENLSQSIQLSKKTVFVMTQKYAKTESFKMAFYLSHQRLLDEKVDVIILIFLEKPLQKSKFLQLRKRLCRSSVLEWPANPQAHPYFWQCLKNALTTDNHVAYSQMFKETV
The test is described as follows: Agonist activity at mouse TLR7 expressed in HEK293 cells co-expressing NF-kappaB/AP-1 inducible SEAP reporter gene at 33 uM measured for 24 hrs by colorimetric analysis relative to control. The test is classed as cell-based.

In turn, `CCCCNc1nc(N)nc2ncn(Cc3ccc(CN(CC)CC)cc3OC)c12` showed a maximum response (Emax) of 0.711%.

As a reminder, the Emax is the maximal effect, on the per cent scale that the assay sets.
